Earlier results on one compound are cited in US7906545B2, “Prodrugs of CC-1065 analogs” (priority 2002, dated 2011).

The subject of the series is carboxylesterase. The following applies: in humans, presumably by carboxylesterase; cited from earlier work.

Turning to `CCc1c2c(nc3ccc(OC(=O)N4CCC(N5CCCCC5)CC4)cc13)-c1cc3c(c(=O)n1C2)COC(=O)[C@]3(O)CC` [irinotecan], the “conversion in vivo to the active drug” value is reported as “readily converted”.
